Experimental data as given in patent publication US10266527B2, “T-box riboswitch-binding anti-bacterial compounds” (THE RESEARCH FOUNDATION FOR THE STATE UNIVERSITY OF NEW YORK, priority 2013, dated 2019).

System: Human Embryonic Kidney (HEK293) cells
Assay: Toxicity on a monolayer of HEK293 cells
Format: cell-based
Conditions: 1 ug/ml

## Gentamicin [reference compound]
  16 hr post exposure % Live: 100%
  16 hr post exposure Morphology: Normal
  24 hr post exposure % Confluent: 90%
  24 hr post exposure % Live: 100%
  24 hr post exposure Morphology: Normal
